Columns and labels:
[1] = molecular target: T1, Prostaglandin D2 receptor 2 (Homo sapiens, UniProt Q9Y5Y4); conditions: cho-k1
T1 sequence (Q9Y5Y4 whole entry): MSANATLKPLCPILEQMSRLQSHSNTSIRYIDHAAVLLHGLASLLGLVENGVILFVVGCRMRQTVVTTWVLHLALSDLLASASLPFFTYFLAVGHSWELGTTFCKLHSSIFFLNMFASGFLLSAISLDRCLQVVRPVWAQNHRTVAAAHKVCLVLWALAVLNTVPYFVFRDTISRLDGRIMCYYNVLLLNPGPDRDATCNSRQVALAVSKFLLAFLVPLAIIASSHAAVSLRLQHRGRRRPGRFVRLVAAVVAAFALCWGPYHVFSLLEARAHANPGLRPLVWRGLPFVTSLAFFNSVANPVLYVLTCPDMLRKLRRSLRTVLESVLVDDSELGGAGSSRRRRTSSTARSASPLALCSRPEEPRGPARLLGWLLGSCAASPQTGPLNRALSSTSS

[2] = tested on: Eosinophil; assay: cells; conditions: Homo sapiens, Blood, 10 min

- IC50 [1]: 20 nM
- IC50 [2]: 20 nM
SMILES: Cc1c(Cc2ccc(=O)n(Cc3ccc(F)cc3F)n2)c2ccccc2n1CC(=O)O

From ChEMBL document CHEMBL2203126, “Diazine indole acetic acids as potent, selective, and orally bioavailable antagonists of chemoattractant receptor homologous molecule expressed on Th2 cells (CRTH2) for the treatment of allergic inflammatory diseases” (J Med Chem, 2012)
